In ChEMBL document CHEMBL1147639, “Quinolines as extremely potent and selective PDE5 inhibitors as potential agents for treatment of erectile dysfunction” (Bioorg Med Chem Lett, 2004):
pIC50: −log10 of the molar value.

Biological target: cGMP-specific 3',5'-cyclic phosphodiesterase (Homo sapiens, UniProt O76074)
Assay: Inhibition of phosphodiesterase 5 from human platelets

CCc1cc(C#N)cc2c(NCc3ccc(OC)c(Cl)c3)ccnc12
pIC50: 9.40
